The source made the active and inactive calls. No cut-off for these calls is given here.
Key:
[1] = target: T1, Bile acid receptor (Homo sapiens) (UniProt Q96RI1); test: Agonist activity at human full length FXR transfected in HEK293 cells coexpressing pTRexDest/pGL2promotor assessed as luciferase activity by direct reporter cellular assay relative to GW-4064; format: functional, cell-based
T1 sequence (whole entry): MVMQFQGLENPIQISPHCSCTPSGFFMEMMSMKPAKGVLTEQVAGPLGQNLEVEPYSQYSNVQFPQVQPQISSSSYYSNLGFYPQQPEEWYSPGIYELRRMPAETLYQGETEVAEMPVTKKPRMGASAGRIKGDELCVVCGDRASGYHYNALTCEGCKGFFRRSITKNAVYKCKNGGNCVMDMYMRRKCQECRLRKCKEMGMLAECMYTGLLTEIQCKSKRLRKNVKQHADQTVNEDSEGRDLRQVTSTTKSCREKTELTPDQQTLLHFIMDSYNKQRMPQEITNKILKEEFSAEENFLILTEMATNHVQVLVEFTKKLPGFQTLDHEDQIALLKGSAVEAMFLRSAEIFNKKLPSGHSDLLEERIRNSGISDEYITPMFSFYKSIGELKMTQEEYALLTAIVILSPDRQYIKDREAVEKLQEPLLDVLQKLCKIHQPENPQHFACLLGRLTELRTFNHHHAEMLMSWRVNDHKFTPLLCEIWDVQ

[2] = target: T1, Bile acid receptor (Homo sapiens); test: Agonist activity at human […] FXR LBD expressed in HEK293 cells coexpressing GAL4-DNA bindig domain and pFRluc by mammalian one-hybrid assay relative to GW-4064; format: functional, cell-based
[3] = target: T1, Bile acid receptor (Homo sapiens); test: Agonist activity at human GST-fused FXR LBD assessed as cofactor peptide interaction with receptor ligand binding domain by FRET assay relative to GW-4064

- Efficacy [1]: inactive
- Efficacy [2]: inactive
- Efficacy [3]: 98%
Structure (SMILES): Cc1cc(C(F)(F)F)cc(OCc2c(-c3c(Cl)cccc3Cl)noc2C(C)C)n1

From ChEMBL document CHEMBL1208782, “Synthesis and pharmacological validation of a novel series of non-steroidal FXR agonists” (Bioorg Med Chem Lett, 2010)
